Here are results for one compound from ChEMBL document CHEMBL5029173, “Differential BET Bromodomain Inhibition by Dihydropteridinone and Pyrimidodiazepinone Kinase Inhibitors” (J Med Chem, 2021).

In this assay the test system is HEK-293T. Nature of the assay: Inhibition of cell growth in HEK293T cells incubated for 72 hrs by CellTiter-blue reagent based assay. The settings on record: Homo sapiens. Type of assay: functional.

pIC50: −log10 of the molar value.

For `Cc1sc2c(c1C)C(c1ccc(Cl)cc1)=N[C@@H](CC(=O)OC(C)(C)C)c1nnc(C)n1-2`, the negative logarithm of the IC50 (pIC50) (usually −log10 of the IC50, conventionally taken in molar units) was 6.97.
